Our source for the IC50 values is paper PMC3977474, “Cerebrovascular and Neuroprotective Effects of Adamantane Derivative” (BioMed Research International, 2014).

Chains of the proteins cited; added tags and fusions are not shown. Residues count along the entry.
UniProt Q00959, 23-1464: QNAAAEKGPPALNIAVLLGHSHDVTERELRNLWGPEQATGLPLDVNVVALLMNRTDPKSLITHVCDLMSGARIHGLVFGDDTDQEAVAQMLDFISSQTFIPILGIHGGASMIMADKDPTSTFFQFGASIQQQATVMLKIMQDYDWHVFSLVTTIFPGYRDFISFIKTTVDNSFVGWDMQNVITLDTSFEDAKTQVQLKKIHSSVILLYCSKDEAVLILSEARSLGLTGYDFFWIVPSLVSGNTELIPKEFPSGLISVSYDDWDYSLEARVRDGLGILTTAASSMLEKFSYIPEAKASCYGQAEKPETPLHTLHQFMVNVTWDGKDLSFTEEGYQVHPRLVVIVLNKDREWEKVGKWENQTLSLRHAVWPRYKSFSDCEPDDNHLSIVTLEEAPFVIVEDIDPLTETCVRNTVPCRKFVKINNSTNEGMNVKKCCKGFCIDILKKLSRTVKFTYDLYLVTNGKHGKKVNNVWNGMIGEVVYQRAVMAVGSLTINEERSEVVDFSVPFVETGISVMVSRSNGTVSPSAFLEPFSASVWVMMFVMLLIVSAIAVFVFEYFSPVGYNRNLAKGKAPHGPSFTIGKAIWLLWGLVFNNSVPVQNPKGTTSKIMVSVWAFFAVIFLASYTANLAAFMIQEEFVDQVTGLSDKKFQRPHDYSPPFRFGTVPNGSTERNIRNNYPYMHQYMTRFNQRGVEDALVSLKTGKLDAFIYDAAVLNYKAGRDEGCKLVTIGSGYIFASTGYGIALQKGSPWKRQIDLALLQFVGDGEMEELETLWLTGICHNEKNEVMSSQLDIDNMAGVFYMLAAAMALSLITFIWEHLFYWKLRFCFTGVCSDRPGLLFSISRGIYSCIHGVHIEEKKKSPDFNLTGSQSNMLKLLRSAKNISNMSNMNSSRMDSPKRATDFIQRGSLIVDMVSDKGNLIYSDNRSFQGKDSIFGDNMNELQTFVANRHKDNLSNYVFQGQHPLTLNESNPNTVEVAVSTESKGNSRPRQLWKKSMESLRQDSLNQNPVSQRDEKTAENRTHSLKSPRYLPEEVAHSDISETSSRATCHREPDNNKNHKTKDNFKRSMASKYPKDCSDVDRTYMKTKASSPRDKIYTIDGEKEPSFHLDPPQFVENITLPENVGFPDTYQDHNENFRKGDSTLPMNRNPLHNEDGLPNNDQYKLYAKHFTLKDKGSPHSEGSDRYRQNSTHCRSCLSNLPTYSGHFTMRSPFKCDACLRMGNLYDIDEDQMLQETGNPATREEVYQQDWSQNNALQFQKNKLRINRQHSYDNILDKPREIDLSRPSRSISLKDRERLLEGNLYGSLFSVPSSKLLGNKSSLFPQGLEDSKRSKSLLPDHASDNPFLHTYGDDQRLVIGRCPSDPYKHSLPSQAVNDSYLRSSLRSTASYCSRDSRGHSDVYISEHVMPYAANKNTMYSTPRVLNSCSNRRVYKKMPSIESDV
UniProt Q00960, 27-1482: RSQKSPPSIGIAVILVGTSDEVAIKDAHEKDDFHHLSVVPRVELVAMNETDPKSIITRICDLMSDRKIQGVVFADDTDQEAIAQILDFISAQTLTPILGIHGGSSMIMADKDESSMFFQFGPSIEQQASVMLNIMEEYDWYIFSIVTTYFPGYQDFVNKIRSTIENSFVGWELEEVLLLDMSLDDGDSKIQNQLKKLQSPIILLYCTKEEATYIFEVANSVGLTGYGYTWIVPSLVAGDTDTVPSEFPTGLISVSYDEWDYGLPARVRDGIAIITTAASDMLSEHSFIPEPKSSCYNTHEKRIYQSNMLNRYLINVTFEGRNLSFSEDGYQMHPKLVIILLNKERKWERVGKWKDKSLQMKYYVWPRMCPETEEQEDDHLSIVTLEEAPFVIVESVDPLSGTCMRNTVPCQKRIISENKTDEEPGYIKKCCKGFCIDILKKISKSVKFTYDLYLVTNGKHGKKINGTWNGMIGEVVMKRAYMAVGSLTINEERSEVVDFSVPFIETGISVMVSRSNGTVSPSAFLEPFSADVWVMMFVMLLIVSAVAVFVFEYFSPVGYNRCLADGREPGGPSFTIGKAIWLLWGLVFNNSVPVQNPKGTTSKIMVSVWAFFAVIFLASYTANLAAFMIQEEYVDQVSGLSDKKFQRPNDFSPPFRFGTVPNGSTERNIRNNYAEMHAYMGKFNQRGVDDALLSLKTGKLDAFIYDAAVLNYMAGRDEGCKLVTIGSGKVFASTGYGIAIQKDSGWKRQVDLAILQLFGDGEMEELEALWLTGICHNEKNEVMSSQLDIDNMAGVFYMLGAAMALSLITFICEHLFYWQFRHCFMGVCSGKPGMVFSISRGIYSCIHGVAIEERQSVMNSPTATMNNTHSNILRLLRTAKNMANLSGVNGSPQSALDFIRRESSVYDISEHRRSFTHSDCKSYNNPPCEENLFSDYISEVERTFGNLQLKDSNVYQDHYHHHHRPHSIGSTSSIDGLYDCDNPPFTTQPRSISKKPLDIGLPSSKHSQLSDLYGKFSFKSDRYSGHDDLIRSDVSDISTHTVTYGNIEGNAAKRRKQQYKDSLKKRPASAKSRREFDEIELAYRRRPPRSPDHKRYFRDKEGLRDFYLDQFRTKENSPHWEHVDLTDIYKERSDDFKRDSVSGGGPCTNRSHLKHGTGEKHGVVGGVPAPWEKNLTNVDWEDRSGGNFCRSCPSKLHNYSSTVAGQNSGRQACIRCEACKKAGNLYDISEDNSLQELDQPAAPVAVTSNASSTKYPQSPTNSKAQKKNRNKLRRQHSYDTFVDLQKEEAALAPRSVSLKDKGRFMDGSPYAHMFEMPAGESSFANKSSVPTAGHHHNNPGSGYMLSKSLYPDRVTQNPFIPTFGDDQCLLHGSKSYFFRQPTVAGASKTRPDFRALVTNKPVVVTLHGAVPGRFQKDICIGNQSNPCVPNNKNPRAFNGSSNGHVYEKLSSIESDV

The structures appear in SMILES notation.

Usually IC50 stands for the point on the concentration scale where inhibition reaches its midpoint. High values mean weaker potency, low ones greater potency.

This assay has as its target T1, NMDA receptor (Rattus norvegicus, UniProt P35439+Q00959+Q00960).
T1 construct: gene Grin1; native receptor in rat hippocampal membranes
In words: [3H]-MK-801 radioligand displacement, rat hippocampal membranes. Format: binding. For orientation: Loss of bound radioactivity is the signal in a displacement assay; it reports binding, not function.

As to `CC12CC3CC(C)(C1)CC(N)(C3)C2` [memantine], the IC50 is 1140 nM. This counts as single-digit micromolar.
